Binding of CDR-mutated scFvs to a peptide of the spike HR2 region

Values reported by Li et al. 2023, doi:10.1038/s41467-023-39022-2 (FLAb copy).

Target peptide (SARS-CoV-2 spike, HR2 region): PDVDLGDISGINAS

Parent: Ab-14, a human scFv built as VH, a 15-residue (Gly4Ser)3 linker, VL. Only the CDRs of the heavy chain vary.
VH: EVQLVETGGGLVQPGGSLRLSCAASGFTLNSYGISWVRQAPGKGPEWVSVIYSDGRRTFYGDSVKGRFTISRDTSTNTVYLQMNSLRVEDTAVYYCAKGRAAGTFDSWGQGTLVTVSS
VL: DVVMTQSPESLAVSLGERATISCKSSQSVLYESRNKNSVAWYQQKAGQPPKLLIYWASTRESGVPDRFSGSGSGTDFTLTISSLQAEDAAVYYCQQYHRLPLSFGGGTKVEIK

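The variants were designed computationally from a first round of random CDR variants and then made and measured. Several design methods are mixed in this list. Affinity was read by AlphaSeq, a pooled yeast mating assay with surface-displayed partners. After mating in shaken culture at 30 °C for 16 h, diploids were selected and their barcode pairs sequenced. A regression on co-assayed BCL2-family reference pairs converts the normalised counts of each replicate to an apparent Kd. The assay was run in six technical replicates.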

Variants are written as CDR1, CDR2 and CDR3 of the heavy chain (limits as in the source). Parent: GFTLNSYGIS, VIYSDGRRTFYGDSVK, GRAAGTFDS. Scale: log10 of Kd in nM, estimated from mating counts; low values are strong binders. Averages over replicates are reported, and they cover detected replicates only. Where no diploid with the target was found in any replicate, the entry reads "no signal": below detection, most likely a poor binder, though not proof of it. Nonspecific signal, from three strains lacking the peptide, appeared in 1% of pairings of all heavy chain designs, centred on 2.08 (5% of these signals below 0.84); values are not corrected for it. Also given: how often the same scFv was detected with the empty control strains. In the paper, a design with two or fewer of six values counts as a poor binder. Of ten entries with the parent sequence, four were seen in most replicates (averages 0.34 to 2.37), three in one and three in none, so single entries are noisy. A sequence measured in both rounds can read differently, since the two assays cover different ranges.

CDR-H1,CDR-H2,CDR-H3,mean log10 Kd (nM),detected,control signals
GITLNDYGIS,VIYSDGMRTFYGDSVK,GRAAGTFDS,-0.05,6/6,1/18
GFTLNSYGIS,VIYSDGVRTFYGDRVK,GRAAGTFDS,no signal,0/6,0/18
GFQLNDYGIS,VIYSDGRRTFYADSVK,GRAAGTFDE,0.44,6/6,0/18
GFDLEDYGIS,VIYADGMRTAYADSVK,GNVAGTFDV,-0.48,6/6,0/18
GFTLNSYGIS,VIYSDGQRTFYSDAVK,GEAAGTFDS,0.95,6/6,0/18
GFDLNEYGIS,VIYADGSRTAYADNVK,GENAGTFDV,-0.58,6/6,0/18
GFTLNDMGIS,VIYSDGRRTQYIDSVK,GFANGTFGS,no signal,0/6,0/18
GFTLSSYGIS,VIYSDGRRTFYGDSVK,GRAKGTNFV,no signal,0/6,0/18
GFDLNEYGIS,VIYADGQRTFYADSVK,GENAGTFDI,-0.23,6/6,1/18
GFDLNEYGIS,VIYADGKRTAYVDSVK,GENAGTFDT,1.08,2/6,0/18
GFDLNSYGIS,VIYSDGMRTFYIDSVK,GNAAGTFDS,0.86,6/6,0/18
GFTLNSYGIS,VIYSDGIRTFYGDSVK,GAAAGTFDS,1.27,6/6,0/18
GFSLNSYGIS,VIYSDGRRTFYGDSVK,GQAAGTFDK,no signal,0/6,0/18
GFDLNEYGIS,VIYADGSRTAYADNVK,GNVAGTFDL,0.10,6/6,0/18
GFTQNSYGVS,VIYSDGRRTFYGDDVR,GRIAGTFDS,no signal,0/6,0/18
GFDLDEYGIS,VIYADGSRTAYADSVK,GNVAGTFDQ,-0.17,6/6,0/18
GFTLNEYGIS,VIYSDGRRHFYGQSVK,GRAAGTFDS,no signal,0/6,0/18
GFTLNEYGIS,VIYSDGRRTFYGDSVK,GRAAGTFCI,0.23,2/6,0/18
GFDLDEYGIS,VIYADGVRKAYADSVK,GNNAGTFDV,0.08,6/6,1/18
GFFLNDYGIS,VIYSDGRRTFYSDSVK,GTAAGTFDS,0.63,6/6,0/18
GFQIDEYGIS,VIYADGARASYAADVK,GSVDGVGLT,no signal,0/6,0/18
GFDLNEYGIS,VIYADGVRTAYADDVK,GNNAGTFDM,-0.04,6/6,2/18
KFDLNSYGIS,VIYSDGRRTFYCDSVK,GRTAGTFDS,no signal,0/6,0/18
GFTLNEYGIS,VIYSDGRRTFYGDSVK,GRAALTFDV,no signal,0/6,0/18
GFDLNEYGIS,VIYADGKRTAYSDSVK,GNVAGTFDQ,-0.30,6/6,0/18
GFTLNEYGIS,VIYSDGLRTFYGDSVK,GRTAGTFDS,0.16,6/6,0/18
GFDLNEYGIS,VIYADGVRTAYSDKVK,GNVAGTFDI,-0.55,6/6,0/18
GFTLDEYGIS,VIYADGRRTFYQDSVK,GNVAGTFDV,0.23,6/6,1/18
GFNLDEYGIS,VIYADGKRTFYADSVK,GSHAGTFDT,-0.37,6/6,1/18
GFTLNSYGIS,VIYSDGRRTFYGDSVK,GFAAGTDDT,no signal,0/6,0/18
GFNLNEYGIS,VIYADGRRTFYADSVK,GEIAGTFDA,-0.68,6/6,0/18
GTTLNSYGIS,VIYSDGRRTQYADSVK,GRAAVTFDS,no signal,0/6,1/18
GFTLHSYGIS,VIYSDGRRTFYDDSVK,GKLAGTFDS,2.52,1/6,0/18
GKDLEEYGIS,VIYADGRRTAYIENVK,DGLNDGIDV,no signal,0/6,0/18
GFTLNSYGIS,VIYSDGRRTFYADDVK,GRTAGTFDS,0.11,6/6,0/18
GFDLNEYGIS,VIYADGMRTAYADSVK,GGNAGTFDV,-0.26,6/6,0/18

Continued, with the values leading:

mean log10 Kd (nM),detected,control signals,CDR-H1,CDR-H2,CDR-H3
no signal,0/6,0/18,GFSLNEYGIS,VIYSDGRRTFYGDSVK,GRAAGTFIS
no signal,0/6,0/18,GQDIEEYGIS,VIYADGMRTVYSDSVK,SGRTVAIDV
no signal,0/6,0/18,GFNIDEFGIS,VIYADGKRSSVSDSVK,GQLGNAFDL
-0.55,6/6,1/18,GFDLNEYGIS,VIYADGMRKAYADSVK,GNVAGTFDM
no signal,0/6,1/18,GQSLEEYGIS,VIYADGFRTQYKNSVK,GKNAFDITV
no signal,0/6,0/18,GFNLNSYGIS,VIYSDGRRTFYHDSVK,GQLAGTFDS
-0.72,6/6,0/18,GFDLNEYGIS,VIYADGRRTFYADSVK,GEIAGTFDA
no signal,0/6,1/18,GFDLNEYGVS,VIYADGHRTQYSDNVK,GSESASIQN
no signal,0/6,0/18,GFCVNSYGIS,VIYSDGRRTFYGDSVK,DRAAGTFDQ
0.67,6/6,0/18,GFLLNSYGIS,VIYSDGRRTFYADSVK,GQAAGTFDS
no signal,0/6,0/18,GFTLNSYGGS,VIYSDGRRTAYGDSVK,GRKAGTFDS
no signal,0/6,0/18,KFNLNNYGIS,VIYSDGRRTFYGDSVK,GRNAGTFDS
no signal,0/6,0/18,GFELDEYGIS,VIYADGKRKFYAQTVK,GETDGMILD
2.47,1/6,0/18,GFTLLSYGIS,VIYSDGSRTFYGDKVK,GRAAGTFDS
1.39,5/6,1/18,GFTLNSYGIS,VIYSDGMRTFYSDSVK,GRAGGTFDS
1.64,6/6,1/18,GFVLNSYGIS,VIYSDGRRTFYGDSVK,GRTAGTFDS
1.97,4/6,0/18,KFSLNSYGIS,VIYSDGRRTFYGDSVK,GQTAGTFDS
0.80,6/6,0/18,GFDLDEYGIS,VIYADGMRTFYIDSVK,GEAAGTFDV
no signal,0/6,0/18,GFTLNEYGIS,VIYSDGRRTFYGDSVK,GRAAGTFCT
0.68,6/6,0/18,GFALNEYGIS,VIYSDGRRTFYTDSVK,GRFAGTFDS
2.91,1/6,1/18,GFDLAEYGVS,VIYADGKRTAYADHVK,GENLGFFDL
-0.92,6/6,1/18,GFDLNEYGIS,VIYADGMRTFYADDVK,GNQAGTFDM
1.59,1/6,0/18,GFQLNSYGIS,VIYSDGRRTFYGDNVK,GRQAGTFDT
no signal,0/6,0/18,GYTLNQYGIS,VIYSDGRRTFYLDSVR,GSIPGFFDS
1.70,3/6,0/18,GFTLNDYGIS,VIYSDGRRTFYHDSVK,GRAAGTFSS
-0.36,6/6,1/18,GFDLNEYGIS,VIYADGMRTAYADDVK,GNNAGTFDQ
0.05,6/6,1/18,GFSLNEYGIS,VIYSDGRRTFYGDSVK,GTAAGTFDT
0.20,6/6,0/18,GFDLNEYGIS,VIYADGRRTQYIDSVK,GEAAGTFDA
-0.44,6/6,0/18,GFDLNEYGIS,VIYADGKRTAYSDKVK,GNVAGTFDI
no signal,0/6,0/18,GFTLNSYGIS,VIYSDGRRQFYADMVK,GRAALTFDS
0.75,6/6,2/18,GFDLNEYGIS,VIYADGRRTQYIDSVK,GNTAGTFDS
2.25,5/6,1/18,GFTLNDYGIS,VIYSDGRRQFYGDSVK,GEAAGTFDS
no signal,0/6,0/18,GFDLNEQGIS,VIYADGVRTEYQNQVK,GQIDGSFTF
no signal,0/6,0/18,GFDLNEYGIS,VIYSDGRRTFYGDSVK,GRAAWTFDQ
0.70,6/6,0/18,GFSLNSYGIS,VIYSDGRRTFYADTVK,GNAAGTFDS
1.56,5/6,0/18,GFNLNSYGIS,VIYSDGRRTFYGDSVK,GRAAGTFDH

Top 12 of the variants detected in all replicates, tightest first:

| CDR-H1 | CDR-H2 | CDR-H3 | mean log10 Kd (nM) | detected | control signals |
|---|---|---|---|---|---|
| GFDLNEYGIS | VIYADGMRTFYADDVK | GNQAGTFDM | -0.92 | 6/6 | 1/18 |
| GFDLNEYGIS | VIYADGRRTFYADSVK | GEIAGTFDA | -0.72 | 6/6 | 0/18 |
| GFNLNEYGIS | VIYADGRRTFYADSVK | GEIAGTFDA | -0.68 | 6/6 | 0/18 |
| GFDLNEYGIS | VIYADGSRTAYADNVK | GENAGTFDV | -0.58 | 6/6 | 0/18 |
| GFDLNEYGIS | VIYADGMRKAYADSVK | GNVAGTFDM | -0.55 | 6/6 | 1/18 |
| GFDLNEYGIS | VIYADGVRTAYSDKVK | GNVAGTFDI | -0.55 | 6/6 | 0/18 |
| GFDLEDYGIS | VIYADGMRTAYADSVK | GNVAGTFDV | -0.48 | 6/6 | 0/18 |
| GFDLNEYGIS | VIYADGKRTAYSDKVK | GNVAGTFDI | -0.44 | 6/6 | 0/18 |
| GFNLDEYGIS | VIYADGKRTFYADSVK | GSHAGTFDT | -0.37 | 6/6 | 1/18 |
| GFDLNEYGIS | VIYADGMRTAYADDVK | GNNAGTFDQ | -0.36 | 6/6 | 1/18 |
| GFDLNEYGIS | VIYADGKRTAYSDSVK | GNVAGTFDQ | -0.30 | 6/6 | 0/18 |
| GFDLNEYGIS | VIYADGMRTAYADSVK | GGNAGTFDV | -0.26 | 6/6 | 0/18 |